This is an account of results in PMC8658787, “Screening of Potential Thrombin and Factor Xa Inhibitors from the Danshen–Chuanxiong Herbal Pair through a Spectrum–Effect Relationship Analysis” (Molecules, 2021).

The test addresses T1, thrombin (THR) (Homo sapiens, UniProt P00734).
T1 construct: purchased Sigma-Aldrich
The experiment in a line: THR inhibitory activity assay (chromogenic substrate S-2238, absorbance at 405 nm). The format is biochemical. Particulars: in vitro enzymatic activity assay. On the procedure:
A PBS buffer was prepared by dissolving 1.44 g of Na2HPO4 and 0.24 g of KH2PO4 in 800 mL of water for immediate use (pH was adjusted to 8.0 by 1.0 M NaOH). A stock solution of THR (125 U/mL) was prepared by dissolving 4.16 mg of THR in 1.0 mL of PBS. A stock solution of FXa (0.5 IU/mL) was prepared by dissolving 5.0 mg of FXa in 1.0 mL of PBS. Stock solutions of S-2238 (2 mg/mL) and S-2765 (2.5 mg/mL) were prepared in PBS. The DC extract samples (10 mg/mL) were prepared in a PBS buffer and diluted to 5.0 and 2.5 mg/mL as necessary.
THR and FXa inhibitory activity assays were performed with an iMark™ Microplate Absorbance Reader (Bio-Rad Laboratories, Inc., Hercules, CA, USA). A DC extract solution of 50 μL and a 50 μL THR solution were mixed and incubated for 10 min at 37 °C. Subsequently, a 100 μL S-2238 (2 mg/mL) solution as the chromogenic substrate was added to start the reaction in the microplate reader. The absorbance was monitored at 405 nm every 30 s for 10 min, and each group was measured three times. As a control group, the operation process was similar to the experimental group but without a DC extract. […] The inhibition rate (%) of THR and FXa was calculated using Formula (1). […] The results were expressed as the mean ± standard deviation (SD) of three experiments.

In turn, `CC1CNc2c(cccc2S(=O)(=O)N[C@@H](CCCNC(=N)N)C(=O)N2CC[C@@H](C)C[C@@H]2C(=O)O)C1` (stereo partly shown) [Argatroban, reference compound] came in with a half-maximal inhibitory concentration (IC50) of 64.9 µM.

A word on the IC50: it is the concentration needed to halve the response being measured. A higher IC50 goes with lower potency.
